Consider seven molecules from patent US9617251B2, “Indanylaminopyridylcyclopropanecarboxylic acids, pharmaceutical compositions and uses thereof” (BOEHRINGER INGELHEIM INTERNATIONAL GMBH, priority 2015, dated 2017).

Protein sequences, listed by entry. Tags and fused reporters are not part of them.
UniProt P11712, whole entry: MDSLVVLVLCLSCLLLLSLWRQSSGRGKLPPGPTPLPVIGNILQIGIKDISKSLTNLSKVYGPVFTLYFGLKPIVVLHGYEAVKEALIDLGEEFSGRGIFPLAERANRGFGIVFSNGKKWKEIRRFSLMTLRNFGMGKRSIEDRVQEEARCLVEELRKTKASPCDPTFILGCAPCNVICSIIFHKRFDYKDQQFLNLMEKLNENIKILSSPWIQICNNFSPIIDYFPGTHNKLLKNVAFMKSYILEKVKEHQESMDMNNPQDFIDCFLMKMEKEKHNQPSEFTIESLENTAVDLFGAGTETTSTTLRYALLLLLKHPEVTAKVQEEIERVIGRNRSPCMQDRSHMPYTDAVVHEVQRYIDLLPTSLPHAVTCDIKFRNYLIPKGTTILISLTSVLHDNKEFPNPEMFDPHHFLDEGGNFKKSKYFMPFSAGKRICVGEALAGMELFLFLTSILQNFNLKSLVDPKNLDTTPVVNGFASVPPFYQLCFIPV
UniProt P10632, whole entry: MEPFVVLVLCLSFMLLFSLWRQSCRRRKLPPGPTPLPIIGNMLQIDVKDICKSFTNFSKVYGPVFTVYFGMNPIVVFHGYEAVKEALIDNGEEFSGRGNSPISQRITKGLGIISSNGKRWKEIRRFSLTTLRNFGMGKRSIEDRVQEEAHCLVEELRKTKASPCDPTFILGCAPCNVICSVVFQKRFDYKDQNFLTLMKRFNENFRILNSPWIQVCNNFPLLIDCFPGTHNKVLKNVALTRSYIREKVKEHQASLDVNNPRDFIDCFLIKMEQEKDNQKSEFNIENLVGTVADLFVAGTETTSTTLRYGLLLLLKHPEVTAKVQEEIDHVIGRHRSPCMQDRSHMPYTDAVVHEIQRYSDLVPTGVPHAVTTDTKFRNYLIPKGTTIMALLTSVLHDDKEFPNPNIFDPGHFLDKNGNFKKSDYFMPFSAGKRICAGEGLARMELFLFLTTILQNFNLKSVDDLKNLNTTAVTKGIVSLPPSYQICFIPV

Series [1] can be described thus: Chemical stability: degradation kinetics in acidic aqueous media (pH ca. 1.2), HPLC recovery. The conditions noted are these: pH value of ca. 1.2 (acetonitrile/0.1 M aqueous HCl 2:3), 37° C. The protocol:
Degradation kinetics is used to simulate chemical stability of compounds in the acidic part of the gastro intestinal tract. […] Their application as medical drugs to treat human diseases is therefore less restricted and troublesome.
The chemical stability of the compounds of the invention at pH value of ca. 1.2 is determined as follows:
Compound is dissolved in an HPLC vial either in a mixture of acetonitrile/0.1 M aqueous HCl (2:3; pH ca. 1.2) or in a mixture of acetonitrile/McIlvaine buffer pH 7.4 (2:3) to get a concentration of approximately 0.25 mg/ml. The vial was then transferred into an HPLC autosampler system and maintained at a temperature of 37° C. A first sample is taken and injected immediately into a standard HPLC system with a UV DAD detector. Further samples are injected after 2, 4, 6, 8 and 10 hours. Amount of degraded compound is measured by determining the recovery rate of compound [%] for each injection using an HPLC standard gradient method. Therefore the peak area of the main peak for the first injection (AUt0) is determined and set as 100%. Peak area of the main peak is determined also for the further injections (AUtn, n=2, 4, 6, 8, 10) and expressed as fraction of (AUt0)/(AUtn, n=2, 4, 6, 8, 10) [%].

Series [2] in a line: Aqueous solubility in buffer vs acetonitrile/water (1/1), LC-UV. The conditions noted are these: buffer pH 2.2, 24 h shaking, 2.5% DMSO. The protocol:
The aqueous solubility of the compounds of the invention is determined by comparing the amount dissolved in buffer to the amount in an acetonitrile/water (1/1) solution. Starting from a 10 mM DMSO stock solution aliquots are diluted with acetonitrile/water (1/1) or buffer, respectively. After 24 h of shaking, the solutions are filtrated and analyzed by LC-UV. The amount dissolved in buffer is compared to the amount in the acetonitrile solution.
Solubility is usually being measured from 0.001 to 0.125 mg/mL at a DMSO concentration of 2.5%. If more than 90% of the compound is dissolved in buffer, the value is marked with “>”.

Series [3] concerns the target cytochrome P450 2C9-isoenzyme (Homo sapiens, UniProt P11712). The series is described as follows: Inhibition of CYP-2C9 (hydroxylation of diclofenac, human liver microsomes). The following applies: CYP-2C9, human liver microsomes, diclofenac 10 μM, 37° C. The protocol: The inhibition of cytochrome P450 2C9-isoenzyme catalyzed hydroxylation of diclofenac by the test compound is assayed at 37° C. with human liver microsomes. All assays are carried out on a robotic system in 96 well plates. The final incubation volume contains TRIS buffer (0.1 M), MgCl2 (5 mM), human liver microsomes (0.1 mg/mL), diclofenac (10 μM) and the test compound at five different concentrations or no compound (high control) in duplicate (e.g., highest concentration 10-50 μM with subsequent serial 1:4 dilutions). Following a short preincubation period, reactions are started with the cofactor (NADPH, 1 mM) and stopped by cooling the incubation down to 8° C. and subsequently by addition of one volume of acetonitrile. An internal standard solution—the stable isotope ^13C6-hydroxydiclofenac—is added after quenching of incubations. Peak area analyte (=metabolite formed) and internal standard is determined by LC-MS/MS. […] Within each of the assay runs, the IC50 of a positive control inhibitor (sulfaphenazole) is determined. Experimental IC50 values are calculated by least square regression according to the following equation: % control activity=(100% control activity/(1+(I/IC50)S))−B with I=inhibitor concentration; S=slope factor; B=background activity (lower plateau of the inhibition curve) […]
A general note: Microsomes from liver hold many membrane-bound enzymes, among them those of drug oxidation.

Series [4] has as its target cytochrome P450 2C8-isoenzyme (Homo sapiens, UniProt P10632). The series is described as follows: Inhibition of CYP-2C8 (deethylation of amodiaquine, human liver microsomes). The conditions noted are these: CYP-2C8, human liver microsomes, amodiaquine 1 μM, 37° C. The protocol:
The inhibition of cytochrome P450 2C8-isoenzyme catalyzed deethylation of amodiaquine by the test compound is assayed at 37° C. with human liver microsomes. All assays are carried out on a robotic system in 96 well plates. The final incubation volume contains TRIS buffer (0.1 M), MgCl2 (5 mM), human liver microsomes (0.05 mg/mL), amodiaquine (1 μM) and the test compound at five different concentrations or no compound (high control) in duplicate (e.g. highest concentration 10-50 μM with subsequent serial 1:4 dilutions). Following a short preincubation period, reactions are started with the cofactor (NADPH, 1 mM) and stopped by cooling the incubation down to 8° C. and subsequently by addition of one volume of acetonitrile. An internal standard solution—the stable isotope d5-desethylamodiaquine—is added after quenching of incubations. Peak area analyte (=metabolite formed) and internal standard is determined by LC-MS/MS. […] Within each of the assay runs, the IC50 of a positive control inhibitor (Montelukast) is determined. Experimental IC50 values are calculated by least square regression according to the following equation: % control activity=(100% control activity/(1+(I/IC50)S))−B with I=inhibitor concentration; S=slope factor; B=background activity (lower plateau of the inhibition curve) […]

Turning to `Cc1cc(OCCC(C)(C)O)cc(C)c1-c1ccc(F)c2c1CC[C@H]2Oc1ccc([C@H]2C[C@@H]2C(=O)O)cc1`, in series [1], the “Amount of degradation after 2 h” value was 8%. For the same molecule, the Solubility – broadly, how much of the substance goes into solution per volume – at pH value 2.2 in series [2] is listed as under 1 μg/mL.

For the molecule `Cc1c(C#N)cccc1-c1ccc(F)c2c1CC[C@H]2Oc1ccc([C@H]2C[C@@H]2C(=O)O)cc1`, the “Amount of degradation after 2 h” value in series [1] was 2.5%^. For the same molecule, the “Solubility at pH value 2.2” value in series [2] is recorded as under 1 μg/mL.

On to `Cc1cc(C(=O)NCC(C)(C)O)cc(C)c1-c1ccc(F)c2c1CC[C@H]2Oc1ccc([C@H]2C[C@@H]2C(=O)O)cc1`, for which the “Amount of degradation after 2 h” value in series [1] worked out at 3%. For the same molecule, the “Solubility at pH value 2.2” value in series [2] is recorded as under 1 μg/mL.

Take `O=C(O)[C@H]1C[C@@H]1c1ccc(N[C@@H]2CCc3c(-c4c(F)cc(F)cc4F)ccc(F)c32)nc1`: in series [2], the “Solubility at pH value 2.2” value was 82 μg/mL. In addition, the IC50 (usually the concentration that inhibits the measured activity by half) in series [3] was 34 µM; in series [4], over 50 µM.

Consider `Cc1cc(-c2nnn(C)n2)cc(C)c1-c1ccc(F)c2c1CC[C@H]2Oc1ccc([C@H]2C[C@@H]2C(=O)O)cc1`, for which the “Solubility at pH value 2.2” value in series [2] is reported as under 1 μg/mL.

Take `Cc1cc(O[C@@H]2CCOC2)cc(C)c1-c1ccc(F)c2c1CC[C@H]2Nc1ccc([C@H]2C[C@@H]2C(=O)O)cn1`: the “Solubility at pH value 2.2” value in series [2] was 95 μg/mL. Besides, the IC50 in series [3] and in series [4] was over 50 µM throughout.

For `Cc1cccc(C)c1-c1ccc(F)c2c1CC[C@H]2Oc1ccc([C@H]2CC2C(=O)O)cc1` (some centres unmarked), the “Amount of degradation after 2 h” value in series [1] is 8%.
